Results: paper PMC8565515, “Dasabuvir Inhibits Human Norovirus Infection in Human Intestinal Enteroids” (mSphere, 2021)

System: J2 HIE monolayers
Assay: Cytotoxicity by LDH assay in J2 HIE monolayers
Conditions: compound 10 μM, n = 1, LDH assay, J2 HIE monolayers infected with GII.4 HuNoV, 24 hpi, normalized to DMSO control

Substance: Maraviroc
- (%) Cytotoxicity: -1.98%
